PubChem BioAssay AID1194 (EPA DSSTox, 2008)
Active and inactive are the calls of the source.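 How the source made its calls: active means chemicals rated mutagenic or weakly mutagenic in the Salmonella bacterial test by one literature review, or positive overall by another; inconclusive means no clear call, values can overlap the other calls; inactive means the rest.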

The molecules below were run on Salmonella typhimurium Ames mutagenicity, literature compiled (assay: DSSTox (CPDBAS) Carcinogenic Potency Database Salmonella Mutagenicity).
From the text: The Carcinogenic Potency Database (CPDB) is a unique and widely used international resource of the results of over 6500 chronic, long-term animal cancer tests on over 1500 chemical substances. The CPDB provides easy access to the bioassay literature, with qualitative and quantitative analyses of both positive and negative experiments that have been published over the past 50 years in the general literature and by the National Cancer Institute/National Toxicology Program. The CPDB standardizes the diverse literature of cancer bioassays that vary widely in protocol, histopathological examination and nomenclature, and in the published author's choices of what information to provide in their papers. Results are reported in the CPDB for tests in rats, mice, hamsters, dogs, and nonhuman primates, and are based on the most positive result among all experiments for each sex-species. The DSSTox CPDBAS (all species) file incorporates data from the CPDB Summary Tables for the full list of over 1500 chemical substances tested in at least one species.
A chemical is classified within the CPDB as mutagenic, i.e. "active", in the Salmonella assay if it was evaluated overall as either "mutagenic" or "weakly mutagenic" by Zeiger [Zeiger, E. (1997) Genotoxicity Database. In: Gold and Zeiger, Eds. Handbook of Carcinogenic Potency and Genotoxicity Databases. Boca Raton, FL: CRC Press, pp. 687-729. http://potency.berkeley.edu/CRCbook.html] or as overall "positive" by the EPA Gene-Tox Program [Kier et al. (1986) Mutat. Res. 168: 69-240].

| Structure (SMILES) | outcome |
| --- | --- |
| ClCl | inactive; active |
| COP(C)(=O)OC | inactive; active |
| O=[N+]([O-])OCC(CO[N+](=O)[O-])(CO[N+](=O)[O-])CO[N+](=O)[O-] | inactive; active |
